Measurements from patent publication US20210393705A1.

Molecular target: heparan sulfate proteoglycan (HSPG) on the surface of human cells
Experiment: GFP/DAPI fluorescence ratio on human smooth muscle primary cells (SMC)

N-terminal GFP-tagged HlpA (histone-like protein A from Streptococcus gallolyticus) (from UniProt P42212 1-238)
fold weaker binding affinity than to colorectal cell lines: 6 fold
